Experiment [1] has as its target T1, μ-opioid receptor (Homo sapiens, UniProt P35372). As to the kind of experiment: [35S]GTPγS functional assay, μ-opioid receptor, HEK-293 cells. The following applies: for μ Emax (%): maximal effect relative to DAMGO, Table 1; for EC50: read-out: μ EC50 (μM), μ GTP EC50, Table 1.
Experiment [2] deals with T1, μ-opioid receptor. The experiment in a line: [35S]GTPγS functional assay, μ-opioid receptor, U-2 OS cells.
A further experiment concerns the target κ-opioid receptor (Homo sapiens, UniProt P41145). As to the kind of experiment: [35S]GTPγS functional assay, κ-opioid receptor, U-2 OS cells.

Consider `COc1ccc2c3c1O[C@H]1[C@@]4(OC)CC[C@@]5(C[C@H]4COCc4cc6ccccc6s4)[C@@H](C2)N(CC2CC2)CC[C@]315`, for which, at μ-opioid receptor [1], the “μ Emax (%)” value was 1.00% and the EC50 was above 20 µM.
The matching figures for `CO[C@]12CC[C@@]3(C[C@H]1COCc1ccccc1)[C@H]1Cc4ccc(O)c5c4[C@@]3(CCN1CC1CC1)[C@H]2O5`: 97.0 ± 5.44% and above 20 µM.
Turning to `CO[C@]12CC[C@@]3(C[C@H]1COCc1cc4ccccc4s1)[C@H]1Cc4ccc(O)c5c4[C@@]3(CCN1CC1CC1)[C@H]2O5`, the “μ Emax (%)” value at μ-opioid receptor [2] (maximal effect relative to DAMGO, Table 2) is 21.7 ± 2.03%; on μ-opioid receptor [1], 1.00%. Further, the EC50 on μ-opioid receptor [2] (read-out: μ EC50, μ GTP EC50, Table 2) was 3.93 µM; on κ-opioid receptor (read-out: κ EC50, κ GTP EC50, Table 2), 48 pM; at μ-opioid receptor [1], above 20 µM. Moreover, the “κ Emax (%)” value at κ-opioid receptor (maximal effect relative to U69,593, Table 2) was 117.3 ± 0.88%.
